For one molecule, Ki and IC50 results are on record in patent US20100286145A1, “ISOPHTHALAMIDE DERIVATIVES INHIBITING BETA-SECRETASE ACTIVITY” (CoMentis, Inc., priority 2007, published 2010).

The chains behind the UniProt entries cited, without tags or fusion partners. Residues count along the entry.
UniProt P56817, 46-501 limits assumed: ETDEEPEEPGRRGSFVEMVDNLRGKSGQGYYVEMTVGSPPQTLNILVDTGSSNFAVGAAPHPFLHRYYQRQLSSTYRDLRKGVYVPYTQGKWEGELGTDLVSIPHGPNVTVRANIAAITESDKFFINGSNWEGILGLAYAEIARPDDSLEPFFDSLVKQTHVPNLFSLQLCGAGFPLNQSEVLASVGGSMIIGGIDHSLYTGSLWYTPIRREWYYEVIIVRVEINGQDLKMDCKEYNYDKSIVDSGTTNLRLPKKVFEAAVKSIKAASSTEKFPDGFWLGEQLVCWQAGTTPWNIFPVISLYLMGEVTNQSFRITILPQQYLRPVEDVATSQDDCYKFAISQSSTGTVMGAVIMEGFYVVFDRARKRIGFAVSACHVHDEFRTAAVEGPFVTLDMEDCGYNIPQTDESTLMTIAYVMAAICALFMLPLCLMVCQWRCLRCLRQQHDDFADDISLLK

The target in one assay is memapsin 2 (Homo sapiens, UniProt P56817). As to the kind of experiment: Inhibition of memapsin 2 beta-secretase activity (fluorogenic substrate FS-2). Conditions: read-out: M2Ki; memapsin 2, pH 4, 37° C., 20 minutes pre-incubation. The protocol: Potency of compounds were determined by measurement of their inhibition of memapsin 2 activity toward a fluorescent substrate. Kinetic inhibition experiments were performed using the procedure as described in Ermolieff, et al. (Biochemistry 39:12450-12456 (2000), the teachings of which are incorporated hereby in their entirety). Briefly, assays were performed at pH 4, 37° C., by pre-incubation of memapsin 2 enzyme with compound for 20 minutes. Activity measurements were initiated by addition of a fluorogenic substrate FS-2 (Bachem Americas, Torrance, Calif.) MCA-SEVNLDAEFR-DNP (SEQ ID NO.: 2). The substrate was derived from 10 amino acids of the human amyloid precursor protein (APP), with the Swedish variant amino acids at the beta-secretase cleavage site. The terminal amino acid was modified from arginine to lysine to facilitate derivatization with a functional group for detection by autofluorescence. The amino acid sequence of the “core” peptide of the substrate is SEVNLDAEFK (SEQ ID NO.: 3). The amino terminus was derivatized with (7-methoxycoumarin-4-yl)acetyl (MCA), and the epsilon amine of the lysine side chain of the terminal residue (K in sequence SEVNLDAEFK (SEQ ID NO.: 3)) was derivatized with 2,4-dinitorphenyl (DNP).
Fluorescent signal increase over time was measured as a rate of hydrolysis of the peptide substrate. […]

In assay [1] the test system is Aβ production in Chinese hamster ovary cells that over-express human APP695 with the London and Swedish mutations. Nature of the assay: Cellular Aβ IC50 determination (Aβ40 sandwich ELISA).

As for `COc1cccc(CN(C)C[C@@H](O)[C@H](Cc2ccccc2)NC(=O)c2cccc(C(=O)N(C)Cc3nc(C)cs3)c2)c1` [Compound 1, N^1-((2S,3R)-3-hydroxy-4-((3-methoxybenzyl)(methyl)amino)-1-phenylbutan-2-yl)-N^3-methyl-N^3-((4-methylthiazol-2-yl)methyl)isophthalamide], on memapsin 2, the Ki was > 0.501 µM. Also, in assay [1], the concentration for half-maximal inhibition (IC50) fell in the range of 1 to 5 µM.

One may read the IC50 as the concentration needed to halve the response being measured.
